According to patent US11015179B2, “Peptide having anti-viral effect and composition containing same” (priority 2015, dated 2021):

Tests used:
HBV [1] = assay: HBsAg ELISA in whole HBV W4P genome-transfected Huh7 cell line; assay type: cell-based, hepatitis B virus; settings: Huh7, 10 μM, 48 hours
Method: To observe virion production of entire HBV containing W4P by PEP1, 2×10^6 Huh7 cells were seeded into a 100 mm dish, and normal total HVC and HBV containing W4P were co-transiently transfected with a pCMV-β-gal vector including β-galactosidase, and incubated for 3 days. While changing the medium every 24 hours, the supernatant (sup) was collected. To analyze the supernatant, ELISA was performed according to experimental instructions using a generalized Bioelisa HBsAg color ELISA kit (BIOKIT S.A., Spain) and an HBeAg ELISA kit (BIOKIT S.A., Spain) that can detect a Hepatitis B surface antigen (HBsAg) and a Hepatitis B envelope antigen (HBeAg). 100 μl of each of the collected supernatants was added to each well, and reacted at 37° C. for 1 hour. 300 μl of a washing solution to each well for washing three times. 300 μl of a washing solution was added to the diluted conjugate solution for washing three times. 20 μl/ml of TMB was added to a substrate solution, and then 100 μl of the mixture was added to each well of a 96-well plate to allow a reaction for 30 minutes while light was blocked at room temperature. 100 μl of a stop solution was added to stop the reaction. The absorbance was read using an ELISA reader (Beckman, USA) at 450 nm. […]

Huh7.5 cells = assay: Flow cytometry of FITC-conjugated PEP1 penetration into Huh7.5 cells; assay type: cell-based, human
Method: To assess the intracellular penetration of fluorescein isothiocyanate (FITC)-conjugated PEP1, the cell lines were treated with various materials, and further treated with the FITC-conjugated PEP1 for two hours, followed by FACS analysis. For LRP1 knockdown, 18 hours after siRNA was injected, the cells were washed with PBS and treated with FITC-conjugated PEP1 for two hours, peptides attached to the cells were completely removed by treatment with trypsin/EDTA (Invitrogen), and the cells were washed with an FACS buffer solution (PBS, 0.5% BSA), followed by analysis using BD FACS Fortessa (BD Biosciences, San Diego, Calif., USA). Data analysis was carried out using FlowJo software (version 9.7.7, TreeStar, Ashland, Oreg., USA).
In addition, to check if the oxidative stress has an influence on penetration of PEP1, PDTC was added to the JFH-1 cells, and H2O2 was added to Huh7.5 cells, thereby producing various oxidative levels. These treating conditions brought about different influences on eHSP secretion depending on ROS levels (FIGS. 8 and 9). In accordance with the assumption by the inventors, PEP1 penetration into the JFH-1 cells was decreased in the presence of PDTC, and PEP1 penetration was increased in the Huh7.5 cells in the presence of H2O2 (FIGS. 13 and 14).

HBV [2] = assay type: in vivo, mice; settings: caudal vein twice a week; PEP1 50 μg/kg, 3TC 500 μg/kg
Method: HBV transgenic mice were prepared by injecting a 1.1-fold HBV base sequence comprising a full open reading frame (ORF) into the fertilized eggs of the mice through microinjection. The base sequence of HBV used in the research was obtained using a pHY92-W4P plasmid. The pHY92-W4P plasmid was digested with EcoRi before injection into the fertilized eggs of the mice, and finally a base sequence of 3.9 kb in length was used for microinjection. Produced subjects were selected through PCR using a specific sequence of HBsAg. PCR-positive subjects were selected according to the concentrations of serum HBsAg and HBeAg, and finally used as PCR-positive, HBsAg-positive, and HBeAg-positive mice in the study. These mice were backcrossed with C57BL/6 mice to produce heterologous HBV transgenic mice.
HBsAg levels in the HBV-transgenic mice were determined using an HBsAg ELISA kit (BIOKIT, Germany). To quantify HBV titers, total DNA was extracted and confirmed by real-time PCR.
In addition, HBV virion DNA was obtained from mouse serum and subjected to real-time PCR.

HCV = assay: Quantitative PCR of HCV NS2 transcript in JFH-1 cells; assay type: cell-based, Hepatitis C virus (HCV2a JFH-1)
IL-6 = IL-6 ELISA in culture supernatant of W4P-transfected Huh7 cell line; assay type: cell-based, human; settings: Huh7, 10 μM, 48 hours
HSP 90, SOD, ERK, JAK2 = assay: Liver protein expression (western blotting) in whole HBV W4P genome-transgenic mice; assay type: in vivo
Method: To observe a change in protein expression affecting the antiviral effect by the PEP1 peptide, transgenic mice prepared by injecting the whole HBV W4P variant genome were used. The PEP1 peptide was injected into the caudal vein of the mouse at a concentration of 50 μg/kg twice a week. As a control group, 500 μg/kg of 3TC was injected like the PEP1 peptide. On week 8, the whole blood was collected from the mouse, and proteins were extracted from the liver of the mouse and subjected to western blotting to observe expression of the proteins.

p38, JNK and ERK = assay: Immunoblotting of MAPK signaling factors in JFH-1 cells; assay type: cell-based, human; settings: 2 hours
HSP90 = HSP90 immunofluorescence staining of JFH-1 cells; assay type: cell-based, human
From the text: Human liver biopsy tissue samples were obtained from chronic HCV or HBV patients and autoimmune hepatitis (AIH) patients as a control group, under the supervision of the Institutional Review Board (IRB) of Soonchunhyang University Hospital in Bucheon (2014-12-034) and Seoul National University Hospital (1410-136-621). To evaluate the HSP90 expression in liver cells and JFH-1 cells, liver tissue or JFH-1 cells were stained with anti-HSP90 antibodies (Cell Signaling Technology). To visualize the tissue or cells, Alexa Fluor 594-conjugated anti-rabbit IgG (Invitrogen) was used. For counterstaining of the cell nucleus, 4′,6-diamino-2-phenylindole (DAPI, Sigma-Aldrich) was used. Images were obtained and processed using a confocal microscope system A1 (Nikon, Minatoku, Tokyo, Japan) and an NIS-elements 4.20 viewer (Nikon).

[3] = week 8, PEP1 50 μg/kg, 3TC 500 μg/kg

SMILES: CC[C@H](C)[C@H](NC(=O)[C@H](Cc1ccccc1)NC(=O)[C@H](CCCNC(=N)N)NC(=O)[C@H](CC(C)C)NC(=O)[C@H](CCCNC(=N)N)NC(=O)[C@H](CO)NC(=O)[C@@H](NC(=O)[C@H](CC(C)C)NC(=O)[C@H](CC(C)C)NC(=O)[C@H](C)NC(=O)[C@@H]1CCCN1C(=O)[C@H](CCCNC(=N)N)NC(=O)[C@H](C)NC(=O)[C@@H](N)CCC(=O)O)[C@@H](C)O)C(=O)N1CCC[C@H]1C(=O)N[C@@H](CCCCN)C(=O)O [PEP1, EARPALLTSRLRFIPK]
- Extracellular HBsAg level (HBV [1]): no difference in extracellular inhibition
- Intracellular HBsAg level (HBV [1]): intracellular inhibition
- Penetration into Huh7.5 cells in the presence of H2O2 (Huh7.5 cells): increased
- Level of HBsAg in serum, reduction effect on week 8 (HBV [2]): approximately 10%
- Level of HBsAg in serum, up to 4 weeks (HBV [2]): neither the PEP1 peptide nor 3TC showed a reduction effect
- Serum virion level, week 4 (HBV [2]): did not show virion inhibitory effects
- NS2 transcription (HCV RNA replication) (HCV; 48 hours, vs vehicle, PEP1 until 10 μM, NAC 20 mM, PDTC 100 μM, vitamin E 10 μM): concentration-dependently inhibits the NS2 transcription
- HCV RNA replication with LRP1 knockdown (HCV; LRP1 siRNA, PEP1 10 μM): not decreased
- Inhibition of HCV RNA (NS2 transcript) by PEP1 with anti-HSP70 or control (isotype) antibodies (HCV; PEP1 10 μM, anti-HSP70 antibodies or isotype): inhibited by PEP1 regardless of antibodies
- Inhibition of HCV RNA (NS2 transcript) by PEP1 with anti-HSP90 antibodies (HCV; PEP1 10 μM, anti-HSP90 antibodies): not inhibited
- IL-6 level in culture supernatant (IL-6): no IL-6 inhibitory effect
- Expression of HSP 90 and SOD in liver (HSP 90, SOD, ERK, JAK2; week 8, PEP1 50 μg/kg twice a week): no effect
- JAK2 phosphorylation in liver (HSP 90, SOD, ERK, JAK2; [3]): regulated
- Protein phosphorylation of ERK in liver (HSP 90, SOD, ERK, JAK2; [3]): inhibited
- Phosphorylation of p38 and JNK (p38, JNK and ERK): decreased
- ERK activity (p38, JNK and ERK; vitamin E 10 μM): increased
- iHSP90 in JFH-1 cells (HSP90): reduced iHSP90
- HSP90 expression vs control group (PBS) (HSP90; PEP1 10 μM, 2 hours (FIG. 21)): lower HSP90 expression than the control group
